# Results reported in PubChem BioAssay AID1766 (National Center for Advancing Translational Sciences (NCATS), 2009).
# The entries are a selection whose mix differs from that of the whole data set. Records with an inconclusive call do not appear. Calls of active or inactive are those of the source. The call rests on the fitted dose curve; in most records, active means well fitted curve in the direction sought with a large enough effect in the polarisation (not every such curve was filed as active); inconclusive means small, poorly fitted or top-dose-only effect, or effect the other way, or a change in a side signal; inactive means no such curve, though single readings can be large or run the other way; the % refers to the polarisation.
# Assay: qHTS Assay for Inhibitors Targeting the Menin-MLL Interaction in MLL Related Leukemias: Competition With Fluorescein Labeled MLL-derived Peptide; further: % of control where 0% means no effect
# Conditions: Fluorescence polarization, fluorescein-MLL peptide displacement from menin; at 61.4 µM (top of the series) unless noted
row,Structure (SMILES),FP activity change
1,CN1CCCC(OC(=O)C(c2ccccc2)c2ccccc2)C1 (stereo unspecified),inactive: 2.71%
2,NC(=O)c1cc([N+](=O)[O-])cc([N+](=O)[O-])c1N,inactive: 1.54%
3,Cc1ccc(N/C(=N/P(=O)(N2CCOCC2)N2CCOCC2)N2CCOCC2)cc1,inactive: -3.17%
4,COc1ccccc1OP(C)(=O)Nc1ccc(Br)cc1 (stereo unspecified),inactive: 2.62%
5,CN(C)C(=O)OCCc1n(C)cc[n+]1C,inactive: 1.16%
6,CN(C)C(=O)c1c([N+](=O)[O-])cc([N+](=O)[O-])cc1[N+](=O)[O-],inactive: 3.55%
7,CC(C)=N/N=C(\N)N[N+](=O)[O-],inactive: 7.54%
8,CC(=O)C1=CCCC2CCC1N2 (stereo unspecified),inactive: -1.74%
9,C[N+]1=C2C=CC=CC=C2SC12C([N+](=O)[O-])=CC([N+](=O)[O-])=C[C-]2[N+](=O)[O-] (stereo unspecified),inactive: 0.25%
10,CC(C)(C)c1ccc(OP(C)(=O)O)cc1,inactive: 2.55%
11,Nc1ccc([As](=O)(O)c2ccc(N)cc2)cc1,inactive: -1.39%
12,COc1ccccc1OP(C)(=O)Nc1ccccc1Br (stereo unspecified),inactive: 0.144%
13,CP(=O)(Nc1ccc(Cl)cc1)Oc1ccc(F)cc1 (stereo unspecified),inactive: 6.37%
14,CCN(/C(=N/P(=O)(N1CCOCC1)N1CCOCC1)N1CCOCC1)c1ccc(OC)cc1,inactive: -4.65%
15,OCCSCCO,inactive: -1.28%
16,O=C(OCCCN1CCCC1)C(O)(c1ccccc1)C1CCCCC1 (stereo unspecified),inactive: -1.07%
17,COc1ccccc1OP(C)(=O)Nc1c(C)n(C)n(-c2ccccc2)c1=O (stereo unspecified),inactive: 3.81%
18,O=[N+]([O-])c1cccc2n[nH]nc12,inactive: 3.36%

row,Structure (SMILES),FP activity change
1,CC(=O)N1C2C3N(C(C)=O)C1C1N(C(C)=O)C(C(N1C(C)=O)N3C(C)=O)N2C(C)=O,inactive: 1.44%
2,CCc1nc2c(n1)c1c(non1O)c1c2no[n+]1[O-],inactive: 1.07%
3,O=[N+]([O-])c1cc([N+](=O)[O-])c(CCNc2ccccc2)c([N+](=O)[O-])c1,inactive: 0.94%
4,CCc1ccc(OP(C)(=O)Nc2cccnc2)cc1 (stereo unspecified),inactive: 0.557%
5,CP(=O)(Oc1ccccc1)N1CCOC1=O (stereo unspecified),inactive: -1.93%
6,Cc1ccc(NP(=O)(Oc2ccccc2)Oc2ccccc2)nc1,inactive: -0.846%
7,COc1ccc(OP(C)(=O)Nc2ccc(Br)cc2)cc1 (stereo unspecified),inactive: 3.56%
8,COc1ccc(C2=NCC(CBr)S2)cc1 (stereo unspecified),inactive: -7.01%
9,CCN(CC)CC(O)COC(=O)C(O)(c1ccccc1)C1CCCCC1 (stereo unspecified),inactive: 0.778%
10,O=[N+]([O-])c1cccc(NC2=NCC(CBr)S2)c1 (stereo unspecified),inactive: 5.27%
11,CC(C)OP(=O)(F)OC(C)C,inactive: 3.01%
12,C/C1=C2N=C(/C=C3N=C(/C(C)=C4\[N-][C@@](C)([C@H]5N=C1[C@@](C)(CCC(=O)NC[C@H](C)OP(=O)([O-])O[C@@H]1[C@H](O)[C@H](n6cnc7cc(C)c(C)cc76)O[C@@H]1CO)[C@@H]5CC(N)=O)[C@](C)(CC(N)=O)[C@H]4CCC(N)=O)[C@@](C)(CC(N)=O)[C@@H]\3CCC(N)=O)C(C)(C)[C@@H]/2CCC(N)=O.[C-]#N.[Co+3],inactive: -0.906% [at 24.8 µM]
13,O=C(O)CNc1ccc([As](=O)(O)O)cc1,inactive: 7.22%
14,CC(C)(C)C(=O)NC(Sc1ccncn1)C(Cl)(Cl)Cl (stereo unspecified),inactive: -0.247%
15,O=[N+]([O-])c1ncn(CCn2ncnc2[N+](=O)[O-])n1,inactive: 2.34%
16,O=C(Nc1cc([As](=O)(O)O)ccc1O)c1ccccc1,inactive: -10.3%
17,CCOC(=O)c1ccc(NP(C)(=O)Oc2ccc(Cl)cc2)cc1 (stereo unspecified),inactive: 0.201%
18,CP(=O)(OC12CC3CC(CC(C3)C1)C2)OC12CC3CC(CC(C3)C1)C2,inactive: 3.24%
